Laboratory results taken from paper PMC5298231, “The Malaria Parasite's Lactate Transporter PfFNT Is the Target of Antiplasmodial Compounds Identified in Whole Cell Phenotypic Screens” (PLoS Pathogens, 2017).

System: 3D7 P. falciparum trophozoites
Experiment: Cytosolic pH (pHcyt) measurement in BCECF-loaded saponin-isolated trophozoites
Conditions: not given

Row | SMILES | Effect on resting cytosolic pH in glucose-free medium
1 | O=C1CC(O)(C(F)(F)C(F)(F)F)Oc2ccccc21 (centres unmarked) [MMV000972] | no change in the resting pH
2 | COc1ccc2c(c1)OC(O)(C(F)(F)C(F)(F)F)CC2=O (centres unmarked) [MMV007839] | no change in the resting pH

Same assay, conditions: 1 μM

Row | SMILES | Effect on pHcyt at 1 μM (Comments)
3 | Cc1ccc(Nc2nc(-c3ccccn3)cs2)cc1 [MMV007907] | minor (A minor effect on pHcyt corresponds to a change of < 0.15 pH unit)
4 | O=C(Cc1ccccc1)NC(c1ccc(Cl)cc1)c1c(O)ccc2ccccc12 (centres unmarked) [MMV665972] | minor (A minor effect on pHcyt corresponds to a change of < 0.15 pH unit)
5 | Cc1cccc(-n2ncc3c(O)nc(-n4nc(C)cc4NC(=O)c4cc5ccccc5o4)nc32)c1 [MMV403679] | minor (A minor effect on pHcyt corresponds to a change of < 0.15 pH unit)
6 | FC(F)(F)c1cccc(Nc2nc3ccccc3nc2Nc2cccc(C(F)(F)F)c2)c1 [MMV665794] | minor (A minor effect on pHcyt corresponds to a change of < 0.15 pH unit)
7 | CC(C)OCc1cc(CN2CCN(c3cccc(Cl)c3)CC2)c(O)c2ncccc12 [MMV000788] | minor (A minor effect on pHcyt corresponds to a change of < 0.15 pH unit)
8 | O=C(Nc1nc(-c2ccccn2)cs1)c1ccccc1Br [MMV665909] | minor (A minor effect on pHcyt corresponds to a change of < 0.15 pH unit)
9 | Brc1ccc(Nc2nc3ccccc3nc2Nc2ccc(Br)cc2)cc1 [MMV007224] | minor (A minor effect on pHcyt corresponds to a change of < 0.15 pH unit)

System: digestive vacuole of isolated 3D7 trophozoite-stage parasites
Experiment: Digestive vacuole pH (pHDV) measurement in isolated parasites containing fluorescein-dextran
Conditions: 1 μM, 37°C, S1 Fig

Row | SMILES | Effect on the pH inside the digestive vacuole (pHDV)
10 | O=C(Nc1cccc(C(F)(F)F)c1)c1cc(Cl)ccc1O [MMV665807] | had an effect
11 | O=C(NC(c1ccccc1)c1ccc2cccnc2c1O)c1ccccc1 (centres unmarked) [MMV666080] | without effect
